Biological target: ERα (Homo sapiens, UniProt P03372)
Assay: ERE luciferase reporter gene assay in T47D-KBluc cells (target engagement)
Conditions: read-out: ER-α Luciferase IC50, 10% FBS, 24 hours, Table 3 cereblon centric PROTACs
Experimental: Chimeric molecules were assessed for target engagement in T47D cells using the commercial kit of ERE luciferase reporter gene assay. In the assay, 10% FBS was included and estrogen level was measured to be 10 pM.
ERE Luciferase Assay for Compounds in Table 1-3.
T47D-KBluc cells (ATCC #CRL_2865, T47D human breast cancer cells stably transfected with estrogen responsive element/promoter/luciferase reporter gene) were seeded into 96-well white opaque plates in RPMI growth medium supplemented with 10% fetal bovine serum and allowed to adhere overnight in a 37° C. humidified incubator. The following day, cells were treated with PROTACs in a 12-point concentration curve (top final concentration of 300 nM with subsequent concentrations being 3-fold less with 2 pM being the lowest concentration in the assay). Each PROTAC was tested independently in two experiments on 96-well plates. After 24 hours, media was removed and lysis buffer was added to the wells. Following lysis, Bright-Glo™ Luciferase Assay Substrate (Prornega, Madison Wis.) was added and the luciferase activity was measured using a Cytation 3 plate reader (TioTek™, Winooski, Vt.). Each compound was assayed in duplicates and the activity was calculated as IC50 using GraphPad Prism software (San Diego, Calif.).

Chains of the proteins cited; added tags and fusions are not shown.
UniProt P03372, whole entry: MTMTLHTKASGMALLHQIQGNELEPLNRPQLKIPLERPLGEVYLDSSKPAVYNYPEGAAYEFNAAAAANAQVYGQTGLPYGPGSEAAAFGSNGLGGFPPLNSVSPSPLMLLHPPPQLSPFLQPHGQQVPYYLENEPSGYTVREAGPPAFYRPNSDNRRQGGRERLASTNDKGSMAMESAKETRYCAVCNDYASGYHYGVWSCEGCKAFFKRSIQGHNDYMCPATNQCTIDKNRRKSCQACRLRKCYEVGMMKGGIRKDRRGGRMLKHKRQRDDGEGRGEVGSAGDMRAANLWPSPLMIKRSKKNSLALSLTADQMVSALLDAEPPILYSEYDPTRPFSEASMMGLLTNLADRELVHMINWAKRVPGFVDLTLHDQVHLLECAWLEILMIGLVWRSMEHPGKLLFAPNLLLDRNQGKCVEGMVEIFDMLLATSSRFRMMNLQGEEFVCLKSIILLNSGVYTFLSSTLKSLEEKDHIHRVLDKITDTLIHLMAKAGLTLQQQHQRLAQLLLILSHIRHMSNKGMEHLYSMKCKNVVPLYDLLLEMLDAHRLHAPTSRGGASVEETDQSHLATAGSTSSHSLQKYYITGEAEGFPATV

O=C1CCC(N2Cc3c(cc(F)c(N4CCN(CCCOc5ccc(Oc6c(-c7ccc(OC(F)(F)F)cc7)sc7cc(O)ccc67)cc5)CC4)c3F)C2=O)C(=O)N1 (stereo not shown)
IC50: 58.2 nM
